# Assay results: patent US3980703A, “Extraction of carboxylic acids from dilute aqueous solutions” (The Dow Chemical Company, priority 1975, dated 1976)
# Test: Extraction of acetic acid from 18% aqueous NaCl with polar extractants, distribution coefficient by radiometric counting (Example 1)
# Type: physicochemical
# Conditions: 0.5 M extractant in CHCl3; 1920 ppm acetic acid in 18% aqueous NaCl; equal volumes, 30 min
smiles,measurement,value
CCOP(=O)(NC1CCCCC1)OCC,Distribution coefficient (ratio of acetic acid concentrations in organic and aqueous phase),1.13
